Target: Type 1 fimbrin D-mannose specific adhesin (Escherichia coli K-12) (UniProt P08191)
Assay: Relative inhibitory potency, ratio of methyl alpha-D-mannose Kd to compound Kd for binding affinity to C-terminal His-tagged truncated Escherichia coli FimH by SPR analysis
Conditions: K12

By UniProt entry, the sequences of proteins in these tests, tags left out.
UniProt P08191, whole entry: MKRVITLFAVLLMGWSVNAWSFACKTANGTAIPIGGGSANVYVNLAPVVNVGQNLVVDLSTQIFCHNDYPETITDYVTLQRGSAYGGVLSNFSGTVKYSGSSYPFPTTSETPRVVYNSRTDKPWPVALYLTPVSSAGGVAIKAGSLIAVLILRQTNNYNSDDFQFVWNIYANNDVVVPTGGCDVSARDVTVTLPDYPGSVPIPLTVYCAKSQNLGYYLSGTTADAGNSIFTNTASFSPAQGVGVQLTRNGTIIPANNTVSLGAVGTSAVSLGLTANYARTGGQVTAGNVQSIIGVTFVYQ

Ratio: 440
Compound: CCCCCCCO[C@H]1O[C@H](CO)[C@@H](O)[C@H](O)[C@@H]1O
